Test system: RNA target: 5′-rG CUA GAG AAG UC G (SEQ ID NO: 40)
Assay: UV thermal melting, two triazole linkages (MeC-MeC steps), RNA target
Details: Table 4; for Tm, RNA target: 10 mM phosphate, 200 mM NaCl, pH 7.0, 3.0 μM each strand; for ΔTm/mod, RNA target: relative to unmodified ON35

Row | Substance | Tm, RNA target [°C] | ΔTm/mod, RNA target
1 | 5′-dCGA^MeCp^MeCTCT^MeCp^MeCAGC | 70.1 | –
2 | 5′-dCGA^MeCt^MeCTCT^MeCt^MeCAGC | 59.1 | -5.5 °C/modification
3 | 5′-dCGA^MeCt^MeC^LTCT^MeCt^MeC^LAGC | 67.1 | -1.5 °C/modification
4 | 5′-dCGA^MeCp^MeC^LTCT^MeCp^MeC^LAGC | >75 | >+2.5 °C/modification
